This note sets out measurements from patent US7374875B2, “Peptides having affinity for the gp120 viral protein and use thereof” (priority 2001, dated 2008).

One assay concerns HIV-1LAI. Kind of assay: Replication of HIV-1LAI in PHA-P-activated PBMCs, reverse transcriptase activity in supernatants on day 7. The note with it: for % inhibition of viral replication: ± standard deviation; for EC50: HIV-1LAI, read-out: ED50 (the source's name). The procedure:
(§1) The handling of the infectious material was carried out in an L3-type high security laboratory. In order to be as close as possible to the physiopathological conditions, the study was carried out using primary cultures of human peripheral blood mononuclear cells (PBMCs). In all the experiments, the effects of the new molecules were compared to those of AZT.
(§2) The PBMCs are separated from the other represented elements of the blood by ficoll (MSL 2000, Eurobio) gradient centrifiguation: 30 ml of blood, from a healthy donor, diluted by a third are deposited onto a 20 ml ficoll cushion. After centrifugation for 20 min at 850 g, the ring of PBMCs is removed and then washed twice with RPMI 1640, after centrifugation at 750 g for 10 min and at 400 g for 5 min. The PBMCs are then activated for 48 h with 1 μg/ml of phytohaemagglutinin-P (PHA-P; Difco Laboratories). The PBMCs are cultured at +37° C., in an atmosphere saturated with humidity, under 5% CO2. At the end of the 48 hours of mitogenic activation, they are cultured in medium B. Throughout the culturing, the culture supernatants are sampled, and the culture media are renewed every three or four days. At each renewal of the culture media, the cell viability is evaluated by microscopic observation.
(§3) The compounds of the present invention CD4M30, CD4M33 and CD4M35 were solubilized in sterile water for injectable preparation (Aguettant), aliquoted, and then stored at −20° C.
The biological characteristics of this isolate are: rapid/high, scyncitia inducing (SI), ×4: it is therefore preferentially able to infect lymphocytes. The viral stock was constituted by amplifying this strain in vitro, using umbilical cord blood mononuclear cells (UCBMCs) pre-activated with 1 μg/ml of PHA-P and cultured in medium B. In order to remove the soluble factors such as cytokines, the culture supernatants were ultracentrifuged at 360 000 g for 5 min, and the pellets were resuspended in RPMI 1640. The viral stock thus constituted was then titred using PHA-P-activated PBMCs. The TCID50 (50% Tissue Culture Infectious Dose) was calculated using the Kärber formula.
The viral replication was measured, on day 7 of the culture, by assaying the reverse transcriptase activity in the culture supernatants using the RetroSys (registered trade mark) assay kit according to the recommendations of the company Innovagen.
The 50% effective doses (ED50) are calculated using the “Dose-effects analysis with microcomputers” software developed by J. Chou & T. C. Chou.

For a further assay, the system named is HIV-1LEN. Kind of assay: Replication of clinical isolate HIV-1LEN in PHA-P-activated PBMCs, reverse transcriptase activity in supernatants. The note with it: 50 TCID50, PHA-P-activated human PBMCs. The procedure: as §1, §2, §3
The biological characteristics of this isolate are: rapid/high, scyncitia inducing (SI), ×4: it is therefore preferentially able to infect lymphocytes. […] The TCID50 (50% Tissue Culture Infectious Dose) was calculated using the Kärber formula.
The viral replication was measured, on day 7 of the culture, by assaying the reverse transcriptase activity in the culture supernatants using the RetroSys (registered trade mark) assay kit according to the recommendations of the company Innovagen. […]

Values joined by “and” are separate entries in the source; they are usually repeats but may differ in a detail not shown here. Equal entries are not always repeated. Where two headings read alike, the source gives them in different places.

For the molecule `Cc1cn([C@H]2C[C@H](N=[N+]=[N-])[C@@H](CO)O2)c(=O)[nH]c1=O` [AZT], the “% inhibition of viral replication” value is recorded as 39 + 10% with HIV-1LAI (AZT 1 nM); 59 + 28% with HIV-1LAI (AZT 10 nM); 100 ± 0% with HIV-1LAI (AZT 100 nM as printed (second such line)); 87 ± 18% in the assay with HIV-1LAI (AZT 100 nM); 100 ± 0% in the assay on HIV-1LAI (AZT 10,000 nM). Moreover, the EC50 in the assay with HIV-1LAI (10 TCID50, PHA-P-activated human PBMCs) was 5 nM; with HIV-1LAI (various viral doses (10-100 TCID50)), 3 to 14 nM and 3 nM; with HIV-1LEN (read-out: ED50 (the source's name)) it was 2.2 nM. The same molecule yielded an ED70 in the assay on HIV-1LEN of 4.8 nM. In the assay with HIV-1LEN, the ED90 was determined as 16.5 nM.
